Consider one compound from ChEMBL document CHEMBL5252536, “Discovery of VU0467485/AZ13713945: An M4 PAM Evaluated as a Preclinical Candidate for the Treatment of Schizophrenia” (ACS Med Chem Lett, 2017).

By UniProt entry, the sequences of proteins in these tests, tags left out.
UniProt P08485, whole entry, looked up: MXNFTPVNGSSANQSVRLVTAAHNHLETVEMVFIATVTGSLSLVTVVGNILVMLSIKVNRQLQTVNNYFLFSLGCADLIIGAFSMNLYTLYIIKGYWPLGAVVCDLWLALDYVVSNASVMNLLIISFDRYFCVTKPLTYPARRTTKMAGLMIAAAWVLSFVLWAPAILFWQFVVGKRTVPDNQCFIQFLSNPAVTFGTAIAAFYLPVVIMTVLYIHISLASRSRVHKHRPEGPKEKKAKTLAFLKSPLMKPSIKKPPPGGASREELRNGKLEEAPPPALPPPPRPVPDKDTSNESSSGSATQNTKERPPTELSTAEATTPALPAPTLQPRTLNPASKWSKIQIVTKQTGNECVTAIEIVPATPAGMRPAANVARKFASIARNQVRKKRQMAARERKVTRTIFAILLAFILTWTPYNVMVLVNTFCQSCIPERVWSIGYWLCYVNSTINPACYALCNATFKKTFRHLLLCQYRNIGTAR

This assay addresses Muscarinic acetylcholine receptor M4 (Rattus norvegicus, UniProt P08485). In words: Positive allosteric modulator activity at rat M4 receptor expressed in CHO cells co-expressing Gqi5 in presence of EC20 concentration of acetylcholine by calcium mobilization assay.

As to `COc1ccc(CNC(=O)c2sc3nnc(C)c(C)c3c2N)cc1F`, the concentration giving a half-maximal response (EC50) worked out at 26.6 nM.
